Substrate: CC(=O)NCCCCNCCCN
Conditions: Rattus norvegicus

B1: Peroxisomal N(1)-acetyl-spermine/spermidine oxidase (Homo sapiens), Q6QHF9 (protein)
chain: MESTGSVGEAPGGPRVLVVGGGIAGLGAAQRLCGHSAFPHLRVLEATARAGGRIRSERCFGGVVEVGAHWIHGPSRGNPVFQLAAEYGLLGEKELSQENQLVETGGHVGLPSVSYASSGASVSLQLVAEMATLFYGLIDQTREFLHAAETPVPSVGEYLKKEIGQHVAGWTEDEETRKLKLAVLNSFFNLECCVSGTHSMDLVALAPFGEYTVLPGLDCTFSKGYQGLTNCMMAALPEDTVVFEKPVKTIHWNGSFQEAAFPGETFPVSVECEDGDRFPAHHVIVTVPLGFLREHLDTFFDPPLPAEKAEAIRKIGFGTNNKIFLEFEEPFWEPDCQLIQLVWEDTSPLEDAAPELQDAWFRKLIGFVVLPAFASVHVLCGFIAGLESEFMETLSDEEVLLCLTQVLRRVTGNPRLPAPKSVLRSRWHSAPYTRGSYSYVAVGSTGGDLDLLAQPLPADGAGAQLQILFAGEATHRTFYSTTHGALLSGWREADRLLSLWAPQVQQPRPRL
B1 gave a Km of 11 µM.
